Laboratory results from ChEMBL document CHEMBL5046295 (J Med Chem, 2022).

The chains behind the UniProt entries cited, without tags or fusion partners. Where a name states a change or a piece, a line headed by the entry shows the natural chain unless it says otherwise.
UniProt P33534: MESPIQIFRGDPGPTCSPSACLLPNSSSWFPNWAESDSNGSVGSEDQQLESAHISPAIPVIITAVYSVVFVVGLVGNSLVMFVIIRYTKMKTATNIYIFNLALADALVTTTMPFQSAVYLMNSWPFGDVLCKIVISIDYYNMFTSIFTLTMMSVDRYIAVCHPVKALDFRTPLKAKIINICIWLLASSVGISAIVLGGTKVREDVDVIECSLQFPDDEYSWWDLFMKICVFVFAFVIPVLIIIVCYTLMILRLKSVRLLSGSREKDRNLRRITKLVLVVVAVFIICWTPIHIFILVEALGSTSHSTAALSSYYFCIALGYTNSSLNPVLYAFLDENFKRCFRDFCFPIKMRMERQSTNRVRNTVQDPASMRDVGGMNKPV
UniProt P41143, whole entry: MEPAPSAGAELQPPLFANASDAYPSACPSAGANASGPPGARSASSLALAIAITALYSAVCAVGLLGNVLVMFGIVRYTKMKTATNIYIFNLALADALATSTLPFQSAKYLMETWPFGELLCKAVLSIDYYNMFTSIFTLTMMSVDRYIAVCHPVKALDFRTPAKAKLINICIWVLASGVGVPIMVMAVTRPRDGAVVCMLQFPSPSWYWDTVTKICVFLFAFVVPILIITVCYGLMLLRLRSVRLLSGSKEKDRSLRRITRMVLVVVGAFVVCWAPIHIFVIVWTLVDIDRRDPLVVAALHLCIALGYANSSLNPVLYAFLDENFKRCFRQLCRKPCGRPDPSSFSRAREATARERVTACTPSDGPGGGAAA

Legend:
[1] = target: Kappa-type opioid receptor (Mus musculus, UniProt P33534); experiment: biochemical
[2] = target: Delta-type opioid receptor (Homo sapiens, UniProt P41143); experiment: biochemical

Question: Which results are given for `O=C(N[C@H]1CC[C@@]2(O)[C@H]3Cc4ccc(O)c5c4[C@@]2(CCN3CC2CC2)[C@H]1O5)c1ccc[nH]1`?
Answer: EC50 [1]: 14.8 nM; EC50 [2]: 26.9 nM
